PubChem BioAssay AID720646 (Broad Institute, 2013)
The entries are a selection whose mix differs from that of the whole data set. Active and inactive are the calls of the source.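 Rule for the calls: active = fitted rise in melting shift crosses a set limit at or below the top valid dose tested; inconclusive = flat fit at mid-level activity, or a poor quality fit; inactive = the rest.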

Amino acid sequences for entries named in this document (tags omitted).
UniProt Q9HCT0, whole entry: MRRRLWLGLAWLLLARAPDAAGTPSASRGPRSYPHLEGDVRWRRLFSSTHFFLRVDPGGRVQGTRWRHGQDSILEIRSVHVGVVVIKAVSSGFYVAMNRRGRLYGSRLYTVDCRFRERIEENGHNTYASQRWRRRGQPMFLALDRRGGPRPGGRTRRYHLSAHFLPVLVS

Target: Fibroblast growth factor 22 (Homo sapiens) (UniProt Q9HCT0)
Test: binders of human FGF22 protein, dose response, FGF22 synaptogenesis inhibitor project, biophysical, thermal shift, cherry-pick retest (AID 720646)
Conditions: recombinant FGF22 thermal shift, SYPRO orange fluorescence; at 38 µM (top of the series)

| Compound | thermal shift activity |
| --- | --- |
| CN(Cc1cccnc1)C(=O)COc1ccc(Cl)c(Cl)c1.O=[N+]([O-])c1cc([N+](=O)[O-])c(O)c([N+](=O)[O-])c1 | inactive: 0.026% |
| CCN(CC)CCCNc1ccccc1[N+](=O)[O-].O=[N+]([O-])c1cc([N+](=O)[O-])c(O)c([N+](=O)[O-])c1 | inactive: -0.077% |
